The numbers were not newly measured in publication PMC4660513 (Pharmacognosy Research, 2015), which cites them from elsewhere.

“And” between values parts separate entries of the source, which are not always exact repeats. Equal entries are not always repeated. Where two headings read alike, the source gives them in different places.

For the series the following is noted: cited from earlier work.

For buprenorphine hydrochloride, the mean plasma concentration by setting is: (single intravenous dose (1.2 mg)) 37.52 ng/ml and 0.08 μM; (single sublingual dose (16 mg)) 6.3 ng/ml and 0.012 μM.
